Source: ChEMBL document CHEMBL6134796, “Development and Evaluation of Indole-Based Phospholipase D Inhibitors for Lung Cancer Immunotherapy” (J Med Chem, 2025)

Key:
Type in all cases: cell-based
[1] = target: GTPase KRas (Homo sapiens) (UniProt P01116); assay: Inhibition of KRAS in human A549 cells assessed as decrease in ERK phosphorylation by measuring fold change incubated for 24 hrs by immunoblot analysis
[2] = target: GTPase KRas (Homo sapiens) (UniProt P01116); assay: Inhibition of KRAS in human A549 cells assessed as decrease in KRAS-GTP level by measuring fold change incubated for 24 hrs by immunoblot analysis
A549 [3] = assay: Inhibition of EGFR-KRAS mediated signalling pathway in human A549 cells assessed as reduction in EGF stimulated EGFR phosphorylation by measuring fold change by immunoblot analysis
A549 [4] = assay: Inhibition of EGFR-KRAS mediated signalling pathway in human A549 cells assessed as reduction in EGF stimulated ERK phosphorylation by measuring fold change by immunoblot analysis

O=C(CCc1c[nH]c2ccccc12)Nc1cc(C(F)(F)F)cc(C(F)(F)F)c1
fold change (FC) [1]: 0.2 | fold change (FC) [2]: 0.4 | fold change (FC) (A549 [3]): 19.8 | fold change (FC) (A549 [4]): 1.5
